Apparent affinities of Ab-14 variants for a coronavirus HR2 peptide

From the AlphaSeq antibody data of Engelhart et al. 2022 (doi:10.1038/s41597-022-01779-4), copy in the FLAb collection.

Target peptide (SARS-CoV-2 spike, HR2 region): PDVDLGDISGINAS

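Phage display of a naive human antibody library on the peptide gave the parent. AAYL49 was designed without a model: most single CDR substitutions and a random sample of double and triple ones. AlphaSeq pools MATa yeast showing the antibodies with MATalpha yeast showing the peptide. Pairs that bind mate more often; barcode pairs of the diploids are counted by sequencing. A regression on co-assayed BCL2-family reference pairs converts the normalised counts of each replicate to an apparent Kd. There are three technical replicates.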

The variants keep the light chain, the linker and the frameworks of Ab-14 (scFv order VH, a 15-residue (Gly4Ser)3 linker, VL).
VH: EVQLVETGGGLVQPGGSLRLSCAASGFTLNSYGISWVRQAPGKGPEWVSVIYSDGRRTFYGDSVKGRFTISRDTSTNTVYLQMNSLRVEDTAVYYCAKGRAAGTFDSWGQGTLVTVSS
VL: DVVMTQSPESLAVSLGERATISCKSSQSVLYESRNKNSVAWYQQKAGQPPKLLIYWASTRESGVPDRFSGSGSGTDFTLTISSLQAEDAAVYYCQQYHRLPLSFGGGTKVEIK

Positions count from residue 1 of the parent VH; L29T puts T in place of L. This list gathers variants with a substitution at F105 (VH, numbered from residue 1). The Kd shown is the geometric mean over detected replicates; a lower Kd is a better binder. A pair that was not seen in any replicate is written "nd"; this usually means weak binding, but a binder can also be missed.

With L29T/F105S/D106Q the result was 980 nM (1 of 3 replicates; controls 0 of 9).
With D62S/K65S/F105V the result was 23 µM (3 of 3 replicates; controls 3 of 9).
With G26S/V64T/F105R the result was 1.6 µM (1 of 3 replicates; controls 1 of 9).
With F59A/G61L/F105P the result was nd (0 of 3 replicates; controls 0 of 9).
With Y52T/G55Q/F105L the result was nd (0 of 3 replicates; controls 1 of 9).
With T104S/F105Y the result was 29 nM (3 of 3 replicates; controls 5 of 9).
With V50F/Y60V/F105D the result was nd (0 of 3 replicates; controls 0 of 9).
With S63K/R100V/F105C the result was 19 µM (1 of 3 replicates; controls 1 of 9).
With L29R/G99A/F105W the result was 2.8 µM (2 of 3 replicates; controls 1 of 9).
With N30F/A102K/F105L the result was 19 µM (1 of 3 replicates; controls 1 of 9).
With F27T/T104P/F105Y the result was 170 µM (1 of 3 replicates; controls 4 of 9).
With F105A the result was 150 nM (3 of 3 replicates; controls 1 of 9).
With I51Q/R56P/F105W the result was nd (0 of 3 replicates; controls 0 of 9).
With T28M/D54P/F105T the result was nd (0 of 3 replicates; controls 0 of 9).
With S53M/D54E/F105W the result was nd (0 of 3 replicates; controls 2 of 9).
With F27S/A102G/F105K the result was 21 nM (3 of 3 replicates; controls 1 of 9).
With V50P/S63R/F105Y the result was nd (0 of 3 replicates; controls 1 of 9).
With Y52M/D54N/F105P the result was 170 µM (2 of 3 replicates; controls 5 of 9).
With G33W/F105E the result was nd (0 of 3 replicates; controls 3 of 9).
With D54F/R56E/F105W the result was nd (0 of 3 replicates; controls 0 of 9).
With K65T/F105H/D106S the result was 56 nM (3 of 3 replicates; controls 0 of 9).
With R56M/R57N/F105Q the result was nd (0 of 3 replicates; controls 0 of 9).
With V50P/T58L/F105P the result was 27 µM (1 of 3 replicates; controls 0 of 9).
With R56G/F105S/S107E the result was nd (0 of 3 replicates; controls 0 of 9).
With G26S/F105Y the result was 4.5 µM (2 of 3 replicates; controls 4 of 9).
With F105G the result was 6.9 nM (3 of 3 replicates; controls 1 of 9).
With F27E/G55H/F105L the result was 87 µM (1 of 3 replicates; controls 1 of 9).
With T58P/G61M/F105Q the result was nd (0 of 3 replicates; controls 0 of 9).
With G26I/Y32F/F105H the result was nd (0 of 3 replicates; controls 2 of 9).
With D62E/A101F/F105Y the result was 50 µM (1 of 3 replicates; controls 2 of 9).
With G61C/T104R/F105L the result was 36 µM (1 of 3 replicates; controls 1 of 9).
With G33Y/T104K/F105L the result was 10 µM (1 of 3 replicates; controls 1 of 9).
With A101V/F105T the result was nd (0 of 3 replicates; controls 0 of 9).
With I51M/V64M/F105E the result was 1.6 µM (1 of 3 replicates; controls 0 of 9).
With G33R/S35E/F105C the result was 54 nM (3 of 3 replicates; controls 3 of 9).
With S35D/G99D/F105M the result was 2.4 µM (1 of 3 replicates; controls 0 of 9).
With Y52G/G103R/F105E the result was 3.6 µM (2 of 3 replicates; controls 0 of 9).
With F59Y/S63M/F105D the result was 14 µM (2 of 3 replicates; controls 0 of 9).
With Y32F/K65H/F105R the result was nd (0 of 3 replicates; controls 0 of 9).
With S31E/G55V/F105G the result was nd (0 of 3 replicates; controls 2 of 9).
With I34S/F105K the result was nd (0 of 3 replicates; controls 0 of 9).
With S31I/G61R/F105C the result was 1.4 mM (1 of 3 replicates; controls 2 of 9).
With F105N the result was 61 nM (3 of 3 replicates; controls 1 of 9).
With T58E/F105Q the result was 130 nM (3 of 3 replicates; controls 0 of 9).
With S53I/D62K/F105A the result was nd (0 of 3 replicates; controls 0 of 9).
With G103T/F105Q the result was 79 nM (3 of 3 replicates; controls 0 of 9).
With S35F/G61F/F105K the result was 1.0 µM (1 of 3 replicates; controls 0 of 9).
With K65E/T104G/F105T the result was 6.3 nM (3 of 3 replicates; controls 0 of 9).
With T28S/S35T/F105L the result was 1.2 µM (1 of 3 replicates; controls 0 of 9).
With G61D/G99N/F105I the result was 6.5 µM (3 of 3 replicates; controls 4 of 9).
With A101Q/F105V the result was 25 nM (3 of 3 replicates; controls 1 of 9).
With T28I/I51C/F105L the result was nd (0 of 3 replicates; controls 1 of 9).

Repeated from above, the 8 best binders with a signal in all replicates:

{"changes": "K65E/T104G/F105T", "Kd": "6.3 nM", "detected": "3/3", "control signals": "0/9"}
{"changes": "F105G", "Kd": "6.9 nM", "detected": "3/3", "control signals": "1/9"}
{"changes": "F27S/A102G/F105K", "Kd": "21 nM", "detected": "3/3", "control signals": "1/9"}
{"changes": "A101Q/F105V", "Kd": "25 nM", "detected": "3/3", "control signals": "1/9"}
{"changes": "T104S/F105Y", "Kd": "29 nM", "detected": "3/3", "control signals": "5/9"}
{"changes": "G33R/S35E/F105C", "Kd": "54 nM", "detected": "3/3", "control signals": "3/9"}
{"changes": "K65T/F105H/D106S", "Kd": "56 nM", "detected": "3/3", "control signals": "0/9"}
{"changes": "F105N", "Kd": "61 nM", "detected": "3/3", "control signals": "1/9"}

For reference, the parent read 4.4 nM as the reference entry and 13 µM (one replicate of three) as a member of this library. Background: pairings of library AAYL49 with three empty control strains gave a value in 15% of cases (median 11 µM, 5th percentile 680 nM). Values in that range, when seen in few replicates, are hard to tell from nonspecific mating. Also given: how often the same scFv was detected with the empty control strains.